Like-named read-outs stand apart in the source and are kept apart here. Blank lines part the entries; values can stand above or below the molecule they belong to.
Columns and labels:
HCC1806 cells = assay: Inhibition of cell proliferation, CellTiter-Glo, HCC1806; conditions: read-out: HCC1806 IC50; Efficacy Example 3 (Table 3), incubation for 3 days
[1] = system: human colon cancer cells HCT116 xenograft tumor; assay: In vivo efficacy in subcutaneous xenograft tumor model of human colon cancer cells HCT116
OVCAR3 cells = assay: Inhibition of cell proliferation, CellTiter-Glo, OVCAR3; conditions: read-out: OVCAR-3 IC50
[2] = In vivo pharmacokinetics after intragastric administration in mice; conditions: single intragastric administration, 20 mg/kg, plasma
CDK7/Cyclin H/MAT1 = CDK7/Cyclin H/MAT1 (Homo sapiens, UniProt P50613); assay: CDK7 inhibition, mobility shift assay; conditions: CDK7 3 nM, pre-incubation 60 min, ATP 2 mM, peptide substrate 2 μM
[3] = In vivo pharmacokinetics after intragastric administration in rats; conditions: single intragastric administration, 40 mg/kg, plasma
HCC70 cells = assay: Inhibition of cell proliferation, CellTiter-Glo, HCC70; conditions: read-out: HCC70 IC50
HCT116 cells = assay: Inhibition of cell proliferation, CellTiter-Glo, HCT116; conditions: read-out: HCT116 IC50; Efficacy Example 3 (Table 3), incubation for 3 days
[4] = 25 mg/kg p.o. QD × 21 days, mean value ± standard error
[5] = Efficacy Example 2 (Table 2), 72 h incubation
[6] = Efficacy Example 3 (Table 3), incubation for 3 days

Sequences of proteins named here, by UniProt entry; tags and fusion partners are left off.
UniProt P50613, whole entry: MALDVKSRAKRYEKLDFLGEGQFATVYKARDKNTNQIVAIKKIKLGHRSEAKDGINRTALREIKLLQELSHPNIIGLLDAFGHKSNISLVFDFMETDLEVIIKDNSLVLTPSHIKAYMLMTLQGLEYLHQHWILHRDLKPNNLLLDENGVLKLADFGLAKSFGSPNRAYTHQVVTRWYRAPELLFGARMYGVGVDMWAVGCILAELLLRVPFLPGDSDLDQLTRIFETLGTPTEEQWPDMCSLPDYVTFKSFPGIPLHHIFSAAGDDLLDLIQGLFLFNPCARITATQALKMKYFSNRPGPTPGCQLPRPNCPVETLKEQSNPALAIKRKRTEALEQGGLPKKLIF
UniProt P51946, whole entry partner: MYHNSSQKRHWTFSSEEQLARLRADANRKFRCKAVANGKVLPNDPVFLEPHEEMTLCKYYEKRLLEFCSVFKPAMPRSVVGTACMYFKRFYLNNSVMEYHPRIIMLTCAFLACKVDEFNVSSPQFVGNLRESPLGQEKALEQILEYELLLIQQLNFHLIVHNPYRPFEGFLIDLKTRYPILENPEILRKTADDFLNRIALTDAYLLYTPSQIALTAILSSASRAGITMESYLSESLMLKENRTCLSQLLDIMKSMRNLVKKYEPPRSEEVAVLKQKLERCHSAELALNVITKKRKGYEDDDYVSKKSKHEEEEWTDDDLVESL
UniProt P51948, whole entry partner: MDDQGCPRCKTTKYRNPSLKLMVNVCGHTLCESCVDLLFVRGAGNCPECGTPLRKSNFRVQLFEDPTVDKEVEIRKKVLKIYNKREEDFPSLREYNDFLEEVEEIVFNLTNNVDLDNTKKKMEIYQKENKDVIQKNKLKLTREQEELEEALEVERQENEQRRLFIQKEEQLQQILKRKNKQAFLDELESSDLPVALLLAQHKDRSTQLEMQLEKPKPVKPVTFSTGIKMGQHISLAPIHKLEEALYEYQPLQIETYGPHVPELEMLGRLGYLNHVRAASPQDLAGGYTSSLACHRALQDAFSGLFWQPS

IC50 (HCC1806 cells): 65.4 nM
IC50 (OVCAR3 cells; [5]): 32 nM
IC50 (OVCAR3 cells; [6]): 102 nM
AUC(0-t) [2]: 2926.85 ng·h/mL
AUC(0-∞) [2]: 3121.49 ng·h/mL
Cmax [2]: 1209.14 ng/mL
T1/2 [2]: 1.97 h
Tmax [2]: 0.67 h
IC50 (CDK7/Cyclin H/MAT1): 54.1 nM
AUC(0-t) [3]: 1988.83 ng·h/mL
AUC(0-∞) [3]: 2554.45 ng·h/mL
Cmax [3]: 322.98 ng/mL
T1/2 [3]: 4.11 h
Tmax [3]: 3.33 h
IC50 (HCT116 cells): 24.1 nM
Compound: Cc1cc(NC2CCN(C(=O)OC3CCN(C(=O)C=CCN(C)C)C3)CC2)n2ncc(C(C)C)c2n1 (single isomer, unassigned) [SZ-015200]
Tumor inhibition rate (TGI) ([1]; 25 mg/kg p.o. QD × 21 days, day 21): 27.9%
% proliferation percentage of tumor volume (Day 21 after grouping) [1, 4]: 764 ± 58%
Tumor volume (day 21 after grouping) [1, 4]: 766 ± 71 mm^3
Anti-tumor effect (in words) ([1]; SZ-015256: 25 mg/kg and 15 mg/kg treatment groups, SZ-015268 and SZ-015200: 25 mg/kg treatment group): slight anti-tumor tendency
IC50 (HCC70 cells; [5]): 34.1 nM
IC50 (HCC70 cells; [6]): 68.6 nM

IC50 (OVCAR3 cells; [5]): 22.6 nM
IC50 (CDK7/Cyclin H/MAT1): 134 nM
Compound: Cc1cc(NC2CCN(C(=O)OC3CCN(C(=O)C=CCN(C)C)C3)CC2)n2ncc(C(C)C)c2n1 (single isomer, unassigned) [SZ-015201]
IC50 (HCC70 cells; [5]): 25.5 nM
